Results published in US20100291236A1, “OSMIUM COMPOUNDS” (THE UNIVERSITY OF WARWICK, priority 2006, published 2010).

Assay: Acidity (pKa / pKa*) of coordinated water, 1H NMR pH* titration
Details: D2O, pH* range 2-9
Excerpt: pKa* calculations. […] The chemical shifts of the arene ring protons were plotted against pH*. The pH* titration curves were fitted to the Henderson-Hasselbalch equation, with the assumption that the observed chemical shifts are weighted averages according to the populations of the protonated and deprotonated species.

[(η^6-p-cym)Os(N-2,4-difluoride-Ph-picolinamide)Cl]PF6 [Compound 8]
pKa* of the aqua adduct: 7.33
